Results reported in article PMC8838898, “Identification of Novel Cannabinoid CB2 Receptor Agonists from Botanical Compounds and Preliminary Evaluation of Their Anti-Osteoporotic Effects” (Molecules, 2022).

Amino acid sequences for entries named in this document (tags omitted).
UniProt P34972, whole entry: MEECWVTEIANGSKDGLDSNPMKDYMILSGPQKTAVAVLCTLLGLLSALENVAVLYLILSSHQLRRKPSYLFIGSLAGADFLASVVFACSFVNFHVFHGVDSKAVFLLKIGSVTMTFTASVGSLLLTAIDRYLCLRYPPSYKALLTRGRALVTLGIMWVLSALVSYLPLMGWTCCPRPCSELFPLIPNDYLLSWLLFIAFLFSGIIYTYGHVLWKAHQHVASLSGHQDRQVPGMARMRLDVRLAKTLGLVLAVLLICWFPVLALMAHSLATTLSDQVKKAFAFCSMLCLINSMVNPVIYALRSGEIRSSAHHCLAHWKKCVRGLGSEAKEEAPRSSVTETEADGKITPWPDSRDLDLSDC

Target: T1, CB2R (Homo sapiens, UniProt P34972)
T1 construct: expressed in transfected cells; host or cells: HEK293 cells stably transfected with pIRES2-EGFP-CB2, pGL4.29 [luc2P/CRE/Hygro] and pRL-TK
Assay: forskolin-stimulated cAMP accumulation assay in HEK293-CB2 cells
Assay type: cell-based
Protocol: After treatment, the cell supernatant was diluted with PBS (pH 7.2–7.4). The cells were lysed by repeated freeze–thaw cycles and being centrifuged for 20 min at 2000–3000 r.p.m. The concentration of cAMP in the cell lysate was determined according to the instructions of the cAMP kit.

For CCCCCCC(C)(C)c1cc(OC)c([C@@H]2C=C(CO)[C@@H]3C[C@H]2C3(C)C)c(OC)c1 [HU308], the IC50 was 54.2 nM.
